# From patent EP2041131B1, “AZAINDOLE DERIVATIVES WITH A COMBINATION OF PARTIAL NICOTINIC ACETYLCHOLINE RECEPTOR AGONISM AND DOPAMINE REUPTAKE INHIBITION” (Abbott Healthcare Products B.V., priority 2006, dated 2008)
# System: rat striatal slices
# Experiment: In vitro [^3H]-Dopamine release
# Assay type: cell-based
# Details: K+ (10 mM) evoked release, compounds added at 10^-8 M and 10^-6 M, table does not say which concentration
compound,measurement,value
"c1cnc2[nH]cc(C[C@@H]3CCCN3)c2c1 (stereo in doubt) [Compound 97, reference compound]",Functional activity release [^3H]-Dopamine % of control,122 % of control
